Source: patent publication US8815809B2, “Cysteine protease inhibitors” (Medivir UK Ltd, priority 2009, dated 2014)

Sequences of proteins named here, by UniProt entry; tags and fusion partners are left off. Residues count along the entry.
UniProt P25774, 115-331 limits assumed: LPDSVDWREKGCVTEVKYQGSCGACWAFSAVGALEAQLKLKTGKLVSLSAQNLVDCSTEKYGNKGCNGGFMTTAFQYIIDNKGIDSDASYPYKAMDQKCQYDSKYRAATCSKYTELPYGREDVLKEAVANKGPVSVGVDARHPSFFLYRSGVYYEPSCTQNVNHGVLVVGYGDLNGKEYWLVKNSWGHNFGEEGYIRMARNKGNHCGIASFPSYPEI
UniProt P43235, 115-329 limits assumed: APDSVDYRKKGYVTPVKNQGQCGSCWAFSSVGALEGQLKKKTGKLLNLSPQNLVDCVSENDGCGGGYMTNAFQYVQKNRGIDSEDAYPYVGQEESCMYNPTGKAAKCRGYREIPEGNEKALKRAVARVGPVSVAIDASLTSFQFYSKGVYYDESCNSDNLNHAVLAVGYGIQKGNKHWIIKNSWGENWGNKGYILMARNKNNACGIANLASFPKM
UniProt P07711, 114-333 limits assumed: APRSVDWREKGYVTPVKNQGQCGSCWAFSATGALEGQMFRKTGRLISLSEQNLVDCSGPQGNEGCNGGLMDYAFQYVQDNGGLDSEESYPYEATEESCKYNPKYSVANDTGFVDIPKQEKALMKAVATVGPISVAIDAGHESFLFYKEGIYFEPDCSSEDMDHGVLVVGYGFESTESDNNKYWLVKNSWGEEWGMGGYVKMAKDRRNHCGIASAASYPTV

How the values were obtained:
human cathepsin S = human cathepsin S (Homo sapiens, UniProt P25774); test: Cathepsin S Ki determination; details: read-out: Ki Cat. S; baculovirus-expressed human cathepsin S, boc-Val-Leu-Lys-AMC substrate, pH 6.5
cathepsin K = cathepsin K (Homo sapiens, UniProt P43235); test: Determination of cathepsin K proteolytic catalytic activity (Ki); details: read-out: Ki Cat. K; human recombinant enzyme, H-D-Ala-Leu-Lys-AMC substrate
human cathepsin L = human cathepsin L (Homo sapiens, UniProt P07711); test: Cathepsin L Ki; details: read-out: Ki Cat. L, H-D-Val-Leu-Lys-AMC substrate, pH 5.5

- pKi (human cathepsin S): 8.59
- pKi (cathepsin K): 6.55
- pKi (human cathepsin L): 5.70
SMILES: COC(=O)N[C@@H](CC1(F)CCCC1)C(=O)NC1(C(=O)C(=O)Nc2ccn(C)n2)CCC1

pKi: −log10 of the molar value.
